These are literature values, as cited in patent US11174245B2, “Benzimidazole compounds and derivatives as EGFR inhibitors” (Boehringer Ingelheim International GmbH, priority 2018, dated 2021).

For the series, the system named is EGFR M+ NSCLC patients. Conditions: EGFR M+ NSCLC patients treated in 1st line; cited from earlier work.

As to `COc1cc2ncnc(Nc3ccc(F)c(Cl)c3)c2cc1OCCCN1CCOCC1` [gefitinib], the objective response rate was 60-85%.
